Experimental findings from patent US9181266B2, “2-piperidin-1-yl-acetamide compounds for use as tankyrase inhibitors” (NOVARTIS AG, priority 2011, dated 2015) are described below.

Sequences of proteins named here, by UniProt entry; tags and fusion partners are left off. Residues count along the entry.
UniProt Q9H2K2, 959-1164: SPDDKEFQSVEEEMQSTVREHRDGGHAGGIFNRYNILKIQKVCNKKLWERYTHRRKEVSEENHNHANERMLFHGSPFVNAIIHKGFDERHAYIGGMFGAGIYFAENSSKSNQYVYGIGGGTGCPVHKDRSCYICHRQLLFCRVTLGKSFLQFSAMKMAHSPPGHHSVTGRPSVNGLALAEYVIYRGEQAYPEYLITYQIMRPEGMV
UniProt P09874, whole entry: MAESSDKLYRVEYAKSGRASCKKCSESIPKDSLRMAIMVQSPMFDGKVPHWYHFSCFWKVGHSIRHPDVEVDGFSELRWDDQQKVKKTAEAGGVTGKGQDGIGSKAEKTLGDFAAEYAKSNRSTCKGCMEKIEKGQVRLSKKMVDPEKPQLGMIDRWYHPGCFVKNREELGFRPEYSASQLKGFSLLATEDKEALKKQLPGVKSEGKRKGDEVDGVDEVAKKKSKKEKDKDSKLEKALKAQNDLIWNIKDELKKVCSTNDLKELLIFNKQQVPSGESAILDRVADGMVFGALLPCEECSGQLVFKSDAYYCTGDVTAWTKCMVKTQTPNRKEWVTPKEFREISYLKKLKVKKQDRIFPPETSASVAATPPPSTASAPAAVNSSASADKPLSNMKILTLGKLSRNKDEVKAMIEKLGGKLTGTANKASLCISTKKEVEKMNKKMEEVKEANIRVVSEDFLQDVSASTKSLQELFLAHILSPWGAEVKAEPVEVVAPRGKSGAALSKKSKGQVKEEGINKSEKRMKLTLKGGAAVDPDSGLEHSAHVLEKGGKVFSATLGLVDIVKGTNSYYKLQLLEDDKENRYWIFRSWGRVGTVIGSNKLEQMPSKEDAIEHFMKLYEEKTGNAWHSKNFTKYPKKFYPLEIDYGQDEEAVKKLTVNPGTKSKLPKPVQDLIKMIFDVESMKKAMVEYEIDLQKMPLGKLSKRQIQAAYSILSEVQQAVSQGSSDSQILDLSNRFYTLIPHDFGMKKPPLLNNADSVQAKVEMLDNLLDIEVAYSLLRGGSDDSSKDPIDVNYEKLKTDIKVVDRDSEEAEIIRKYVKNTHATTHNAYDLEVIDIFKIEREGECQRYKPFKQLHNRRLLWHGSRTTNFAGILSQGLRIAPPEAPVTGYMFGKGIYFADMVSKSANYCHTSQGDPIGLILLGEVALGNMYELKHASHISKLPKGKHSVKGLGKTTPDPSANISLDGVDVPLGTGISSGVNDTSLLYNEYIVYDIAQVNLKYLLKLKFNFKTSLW

Structures are written as SMILES.

One experiment addresses tankyrase 2 protein PARP domain, TNKS2P (Homo sapiens (Human), UniProt Q9H2K2). In words: TNKS2 autoparsylation assay (LC/MS detection of nicotinamide). To be noted: read-out: TNKS2 AP IC50, 20 nM enzyme, 250 μM β-NAD+, 60 min.
The IC50 is the concentration that gives 50% inhibition. Consider `CC(C)CN(Cc1nc2c(c(=O)[nH]1)COCC2)C(=O)CN1CCC(C(=O)c2ccc(F)cc2)CC1` [Example 26, 2-(4-(4-Fluorobenzoyl)piperidin-1-yl)-N-isobutyl-N-((4-oxo-4,5,7,8-tetrahydro-3H-pyrano[4,3-d]pyrimidin-2-yl)methyl)acetamide], for which the IC50 amounted to 18 ± 2 nM.
In the case of `O=C(c1ccc(F)cc1)C1CCN(CC(=O)N(Cc2nc3c(c(=O)[nH]2)COCC3)Cc2cccs2)CC1` [Example 13, 2-(4-(4-Fluorobenzoyl)piperidin-1-yl)-N-((4-oxo-4,5,7,8-tetrahydro-3H-pyrano[4,3-d]pyrimidin-2-yl)methyl)-N-(thiophen-2-ylmethyl)acetamide], the 50% inhibitory concentration (IC50) is 7.5 ± 2 nM.
The same measure, in the same setting: the result for `O=C(c1ccc(F)cc1)C1CCN(CC(=O)N(Cc2ccccn2)Cc2nc3c(c(=O)[nH]2)COCC3)CC1` [Example 22, 2-(4-(4-Fluorobenzoyl)piperidin-1-yl)-N-((4-oxo-4,5,7,8-tetrahydro-3H-pyrano[4,3-d]pyrimidin-2-yl)methyl)-N-(pyridin-2-ylmethyl)acetamide] reads 31 ± 2 nM; that for `O=C(c1ccc(F)cc1)C1CCN(CC(=O)N(Cc2nc3c(c(=O)[nH]2)COCC3)CC2CC2)CC1` [Example 24, N-Cyclopropylmethyl-2-[4-(4-fluoro-benzoyl)-piperidin-1-yl]-N-(4-oxo-3,5,7,8-tetrahydro-4H-pyrano[4,3-d]pyrimidin-2-ylmethyl)-acetamide], 10.7 ± 4.9 nM; that for `COc1ccc(C(=O)C2CCN(CC(=O)N(Cc3nc4c(c(=O)[nH]3)COCC4)CC3CC3)CC2)cc1` [Example 5, N-Cyclopropylmethyl-2-[4-(4-methoxy-benzoyl)-piperidin-1-yl]-N-(4-oxo-3,5,7,8-tetrahydro-4H-pyrano[4,3-d]pyrimidin-2-ylmethyl)-acetamide], 6 ± 1 nM.
Same read-out and setting: then `CN(Cc1nc2c(c(=O)[nH]1)COCC2)C(=O)CN1CCC(C(=O)c2ccc(F)cc2)CC1` [Example 30], with 57 ± 1 nM; and `O=C(CN1CCC(C(=O)c2ccc(F)cc2)CC1)NCc1nc2c(c(=O)[nH]1)COCC2` [Example 1, 2-(4-(4-Fluorobenzoyl)piperidin-1-yl)-N-((4-oxo-4,5,7,8-tetrahydro-3H-pyrano[4,3-d]pyrimidin-2-yl)methyl)acetamide], with 23 ± 9 nM; and `CCCN(Cc1nc2c(c(=O)[nH]1)COCC2)C(=O)CN1CCC(C(=O)c2ccc(F)cc2)CC1` [Example 34, 2-(4-(4-Fluorobenzoyl)piperidin-1-yl)-N-((4-oxo-4,5,7,8-tetrahydro-3H-pyrano[4,3-d]pyrimidin-2-yl)methyl)-N-propylacetamide], with 11 ± 1 nM.
As for `O=C(c1ccc(F)cc1)C1CCN(CC(=O)N(Cc2ccccc2)Cc2nc3c(c(=O)[nH]2)COCC3)CC1` [Example 38, N-Benzyl-2-(4-(4-fluorobenzoyl)piperidin-1-yl)-N-((4-oxo-4,5,7,8-tetrahydro-3H-pyrano[4,3-d]pyrimidin-2-yl)methyl)acetamide], the 50% inhibitory concentration (IC50) was determined as 16 ± 1 nM.

The target in the next experiment is Human PARP1 (Homo sapiens (Human), UniProt P09874). In words: PARP1 autoparsylation assay (LC/MS detection of nicotinamide). To be noted: 20 nM enzyme, 250 μM β-NAD+, 60 min. In kind it is biochemical. The procedure:
The autoparsylation activity of the TNKS 1/2 or PARP1/2 enzymes was measured by the liquid chromatography-mass spectrometry (LC/MS) detection of nicotinamide as readout. Compound activity in inhibiting the TNKS and PARP autoparsylation was evaluated by IC50 measurements.
As to `O=C(CN1CCC(C(=O)c2ccc(F)cc2)CC1)NCc1nc2c(c(=O)[nH]1)COCC2` [Example 1, 2-(4-(4-Fluorobenzoyl)piperidin-1-yl)-N-((4-oxo-4,5,7,8-tetrahydro-3H-pyrano[4,3-d]pyrimidin-2-yl)methyl)acetamide], the midpoint of inhibition, the IC50, lay at 10.4 ± 1.8 µM.
